Like-named read-outs stand apart in the source and are kept apart here.
How the values were obtained:
[1] = molecular target: LRRK2, WT (GST-tagged truncated LRRK2) (Homo sapiens, UniProt Q5S007); test: LRRK2 kinase assay (LanthaScreen), wild type; format: biochemical
Description: (§1) LRRK2 kinase activity was measured using Lantha Screen technology from Invitrogen. GST-tagged truncated LRRK2 from Invitrogen (Cat #PV4874) was incubated with a fluorescein-labeled peptide substrate based upon ezrin/radixin/moesin (ERM), also known as LRRKtide (Invitrogen cat #PR8976A), in the presence of a dose response of compound. Upon completion, the assay was stopped and detected with a terbium labeled anti-phospho-ERM antibody (Invitrogen, cat #PR8975A). […] Using Echo acoustic dispensing, 60 nL of compound was transferred to a low volume Corning 384-well assay plate. 3 μL of a working solution of substrate (200 nM LRRKtide, 2 mM ATP) prepared in assay buffer (50 mM HEPES, pH 7.5, 3 mM MgCl2, with 2 mM DTT and 0.01% Brij35 added fresh) was added to the 60 nL compound assay plate. The kinase reaction was started with 3 μL of a working solution of LRRK2 enzyme at a concentration of 4 μg/m L. The final reaction concentrations were 100 nM LRRKtide, 1 mM ATP, 2 μg/mL LRRK2 enzyme and a compound dose response with a top dose of 3 μM. The reaction was allowed to progress at room temperature for 30 minutes and then stopped with the addition of 6 μL of detection buffer (20 mM Tris pH 7.6, 0.01% NP-40, 6 mM EDTA with 2 nM terbium labeled antiphospho-ERM). […] All final concentrations of substrate ATP and enzyme were the same.

[2] = molecular target: mutant G2019S LRRK2 (Homo sapiens (Human), UniProt Q5S007, G2019S); test: LRRK2 kinase assay (LanthaScreen), G2019S mutant; format: biochemical; settings: LRRKtide substrate
Description: as §1

[3] = wild type LRRK2, LanthaScreen, LRRKtide substrate

Row | SMILES | IC50 [1] [nM] | IC50 ([1]; LanthaScreen, LRRKtide substrate, 1 mM ATP) [nM] | IC50 [2] [nM] | IC50 [1, 3] [nM]
1 | COc1cnn(Cc2nc3cnc4ccc(Cl)cc4c3n2C2CCOCC2(F)F)c1 (single isomer, unassigned) [Example 26, 8-Chloro-1-(3,3-difluorotetrahydro-2H-pyran-4-yl)-2-[(4-methoxy-1H-pyrazol-1-yl)methyl]-1H-imidazo[4,5-c]quinoline] | 5.9 |  |  | 
2 | COCc1cn(Cc2nc3cnc4ccc(Cl)cc4c3n2C2CN(C)CC2(F)F)nn1 (single isomer, unassigned) [Example 22, 8-Chloro-1-(4,4-difluoro-1-methylpyrrolidin-3-yl)-2-{[4-(methoxymethyl)-1H-1,2,3-triazol-1-yl]methyl}-1H-imidazo[4,5-c]quinoline] | 138 |  |  | 
3 | Cc1cc(Cc2nc3cnc4ccc(Cl)cc4c3n2C2CCOCC2(F)F)no1 (stereo not drawn) [enantiomer of Example 60, 8-chloro-1-(3,3-difluorotetrahydro-2H-pyran-4-yl)-2-[(5-methyl-1,2-oxazol-3-yl)methyl]-1H-imidazo[4,5-c]quinoline] |  | 42.2 |  | 
4 | CN1CC(n2c(Cn3cncn3)nc3cnc4ccc(F)cc4c32)C(F)(F)C1 (single isomer, unassigned) [Example 17, 1-(4,4-Difluoro-1-methylpyrrolidin-3-yl)-8-fluoro-2-(1H-1,2,4-triazol-1-ylmethyl)-1H-imidazo[4,5-c]quinoline] | 6.49 |  | 7.57 | 
5 | COCc1cn(Cc2nc3cnc4ccc(Cl)cc4c3n2C2CN(C)CC2(F)F)nn1 (single isomer, unassigned) [Example 23, 8-Chloro-1-(4,4-difluoro-1-methylpyrrolidin-3-yl)-2-{[4-(methoxymethyl)-1H-1,2,3-triazol-1-yl]methyl}-1H-imidazo[4,5-c]quinoline] | 2.35 |  | 1.35 | 
6 | COc1cnn(Cc2nc3cnc4ccc(Cl)cc4c3n2C2CCOCC2(F)F)c1 (single isomer, unassigned) [Example 27, 8-Chloro-1-(3,3-difluorotetrahydro-2H-pyran-4-yl)-2-[(4-methoxy-1H-pyrazol-1-yl)methyl]-1H-imidazo[4,5-c]quinoline] | 29.1 |  | 20.3 | 
7 | Cc1cc(Cc2nc3cnc4ccc(Cl)cc4c3n2C2CCOCC2(F)F)no1 (stereo not shown) [Example 60, 8-chloro-1-(3,3-difluorotetrahydro-2H-pyran-4-yl)-2-[(5-methyl-1,2-oxazol-3-yl)methyl]-1H-imidazo[4,5-c]quinoline] |  |  | 16.3 | 11.4
8 | COCc1cn(Cc2nc3cnc4ccc(Cl)cc4c3n2C2CN(C)CC2(F)F)nn1 (stereo not shown) [Example 44, 8-chloro-1-(4,4-difluoro-1-methylpyrrolidin-3-yl)-2-{[4-(methoxymethyl)-1H-1,2,3-triazol-1-yl]methyl}-1H-imidazo[4,5-c]quinoline] |  |  | 4.53 | 6.02
9 | Cc1cnc(Cc2nc3cnc4ccc(C(F)F)cc4c3n2[C@@H]2CCO[C@H](C)C2)cn1 [Example 13, 8-(Difluoromethyl)-2-[(5-methylpyrazin-2-yl)methyl]-1-[(2R,4R)-2-methyltetrahydro-2H-pyran-4-yl]-1H-imidazo[4,5-c]quinoline] | 9.72 |  | 7.77 | 
10 | Cc1cn(Cc2nc3cnc4ccc(F)cc4c3n2C2CN(C)CC2(F)F)nn1 (single isomer, unassigned) [Example 19, 1-(4,4-Difluoro-1-methylpyrrolidin-3-yl)-8-fluoro-2-[(4-methyl-1H-1,2,3-triazol-1-yl)methyl]-1H-imidazo[4,5-c]quinoline] | 5.43 |  | 8.12 | 
11 | Cc1cnc(Cc2nc3cnc4ccc(F)cc4c3n2C2CN(C)CC2(F)F)cn1 (single isomer, unassigned) [Example 21, 1-(4,4-Difluoro-1-methylpyrrolidin-3-yl)-8-fluoro-2-[(5-methylpyrazin-2-yl)methyl]-1H-imidazo[4,5-c]quinoline] | 235 |  |  | 
12 | Cc1cc(Cc2nc3cnc4ccc(Cl)cc4c3n2[C@H]2CCOCC2(F)F)no1 [Example 5, 8-Chloro-1-[(4S)-3,3-difluorotetrahydro-2H-pyran-4-yl]-2-[(5-methyl-1,2-oxazol-3-yl)methyl]-1H-imidazo[4,5-c]quinoline] | 14.6 |  | 9.41 | 
13 | COc1cnn(Cc2nc3cnc4ccc(C(F)F)cc4c3n2[C@@H]2CCO[C@H](C)C2)c1 [Example 12, 8-(Difluoromethyl)-2-[(4-methoxy-1H-pyrazol-1-yl)methyl]-1-[(2R,4R)-2-methyltetrahydro-2H-pyran-4-yl]-1H-imidazo[4,5-c]quinoline] | 8.77 |  | 4.38 | 
14 | CN1CC(n2c(Cn3cncn3)nc3cnc4ccc(Cl)cc4c32)C(F)(F)C1 (single isomer, unassigned) [Example 24, 8-Chloro-1-(4,4-difluoro-1-methylpyrrolidin-3-yl)-2-(1H-1,2,4-triazol-1-ylmethyl)-1H-imidazo[4,5-c]quinoline] | 2.77 |  | 1.19 | 
15 | Cc1cnc(Cc2nc3cnc4ccc(Cl)cc4c3n2C2CCOCC2(F)F)cn1 (single isomer, unassigned) [Example 7, 8-Chloro-1-(3,3-difluorotetrahydro-2H-pyran-4-yl)-2-[(5-methylpyrazin-2-yl)methyl]-1H-imidazo[4,5-c]quinoline] | 47.9 |  | 39.7 | 
16 | CN1CC(n2c(Cn3cncn3)nc3cnc4ccc(Cl)cc4c32)C(F)(F)C1 (stereo not shown) [Example 43, 8-chloro-1-(4,4-difluoro-1-methylpyrrolidin-3-yl)-2-(1H-1,2,4-triazol-1-ylmethyl)-1H-imidazo[4,5-c]quinoline] |  |  | 8.53 | 5.87
17 | Cc1cc(Cc2nc3cnc4ccc(C#N)cc4c3n2[C@@H]2CCN(C)C2)ncn1 [Example 6, 2-[(6-Methylpyrimidin-4-yl)methyl]-1-[(3R)-1-methylpyrrolidin-3-yl]-1H-imidazo[4,5-c] quinoline-8-carbonitrile] | 6.39 |  | 11.3 | 
18 | Cc1cn(Cc2nc3cnc4ccc(F)cc4c3n2C2CN(C)CC2(F)F)nn1 (single isomer, unassigned) [Example 18, 1-(4,4-Difluoro-1-methylpyrrolidin-3-yl)-8-fluoro-2-[(4-methyl-1H-1,2,3-triazol-1-yl)methyl]-1H-imidazo[4,5-c]quinoline] | 263 |  |  | 
19 | CN1CC(n2c(Cn3cncn3)nc3cnc4ccc(Cl)cc4c32)C(F)(F)C1 (single isomer, unassigned) [Example 25, 8-Chloro-1-(4,4-difluoro-1-methylpyrrolidin-3-yl)-2-(1H-1,2,4-triazol-1-ylmethyl)-1H-imidazo[4,5-c]quinoline] | 318 |  |  | 
20 | Cc1cnc(Cc2nc3cnc4ccc(Cl)cc4c3n2C2CCOCC2(F)F)cn1 (single isomer, unassigned) [Example 8, 8-Chloro-1-(3,3-difluorotetrahydro-2H-pyran-4-yl)-2-[(5-methylpyrazin-2-yl)methyl]-1H-imidazo[4,5-c]quinoline] | 11.8 |  | 11.6 | 
